Earlier results, collected in US10233246B2, “Antibody and antibody fragment introduced new modification sites” (KYOWA HAKKO KIRIN CO., LTD, priority 2010, dated 2019).

Test system: Her2-positive progressive breast cancer
Details: Phase II trial

Tratsuzumab-DM1
patients with reduction of the cancer: 25%
